Data taken from US20190231791A1, “Combination Therapy” (Eli Lilly and Company, priority 2016, published 2019).

B1: Antibody I: anti-N3pGlu Abeta antibody with light chain SEQ ID NO: 12 and heavy chain SEQ ID NO: 11 (antibody)
heavy: QVQLVQSGAEVKKPGSSVKVSCKASGYTFTDYYINWVRQAPGQGLEWMGWINPGSGNTKYNEKFKGRVTITADESTSTAYMELSSLRSEDTAVYYCTREGETVYWGQGTLVTVSSASTKGPSVFPLAPSSKSTSGGTAALGCLVKDYFPEPVTVSWNSGALTSGVHTFPAVLQSSGLYSLSSVVTVPSSSLGTQTYICNVNHKPSNTKVDKKV[human IgG1 Fc not shown]
light: DVVMTQSPLSLPVTLGQPASISCKSSQSLLYSRGKTYLNWFQQRPGQSPRRLIYDVSKLDSGVPDRFSGSGSGTDFTLKISRVEAEDVGVYYCVQGTHYPFTFGQGTKLEIKRTVAAPSVFIFPPSDEQLKSGTASVVCLLNNFYPREAKVQWKVDNALQSGNSQESVTEQDSKDSTYSLSSTLTLSKADYEKHKVYACEVTHQGLSSPVTKSFNRGEC
B2: Antibody II: anti-N3pGlu Abeta antibody with light chain SEQ ID NO: 13 and heavy chain SEQ ID NO: 11 (antibody)
heavy: QVQLVQSGAEVKKPGSSVKVSCKASGYTFTDYYINWVRQAPGQGLEWMGWINPGSGNTKYNEKFKGRVTITADESTSTAYMELSSLRSEDTAVYYCTREGETVYWGQGTLVTVSSASTKGPSVFPLAPSSKSTSGGTAALGCLVKDYFPEPVTVSWNSGALTSGVHTFPAVLQSSGLYSLSSVVTVPSSSLGTQTYICNVNHKPSNTKVDKKV[human IgG1 Fc not shown]
light: DIQMTQSPSTLSASVGDRVTITCKSSQSLLYSRGKTYLNWLQQKPGKAPKLLIYAVSKLDSGVPSRFSGSGSGTEFTLTISSLQPDDFATYYCVQGTHYPFTFGQGTKLEIKRTVAAPSVFIFPPSDEQLKSGTASVVCLLNNFYPREAKVQWKVDNALQSGNSQESVTEQDSKDSTYSLSSTLTLSKADYEKHKVYACEVTHQGLSSPVTKSFNRGEC

Tested on: deposited Aβ
Assay: Ex vivo target engagement, immunohistochemistry on PDAPP brain sections
Design: species or system mouse
Conditions: brain sections of aged PDAPP mice (25-month old); antibody 20 μg/mL
Description: Secondary HRP reagents specific for human IgG are employed and the deposited plaques are visualized with DAB-Plus (DAKO). Biotinylated murine 3D6 antibody followed by Step-HRP secondary is used as a positive control.

Row | Molecule | labeling of deposited Aβ in PDAPP hippocampus
1 | B1 | labeled a subset of deposits
2 | B2 | labeled a subset of deposits
